Compound activity: PubChem, National Center for Advancing Translational Sciences (NCATS)
PINK1 modulator: changes PINK1 expression. PINK1 immunofluorescence, high-content cytometry, 24 h. Potency, µM (doses to about 76.6 µM), inactives show at the top dose activation (PINK1 increase), most hits filed as activators. 0.2% of 410,000 active. AID 624263; active = well fitted activation curve with a large enough effect; inconclusive = small, poorly fitted or top-dose-only effect; cell line not stated here; also: potency is read from the fitted curve at half-maximal effect; % of control where 0% means no effect; nearly all actives have a fitted effect of over 65% in size
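PINK1 protein level read as immunofluorescence by microplate cytometer in a fixed, stained stable cell line after 24 h exposure to five compound concentrations, with CCCP as control.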
RXFP1 antag: antagonists of human relaxin receptor RXFP1; Q9HBX9; HEK293-RXFP1, relaxin-stimulated cAMP HTRF, 30 min; hits give low values; activity change, negative = inhibition, % at 57.5 µM; 0.59% of 350,000 active;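 active = activity change of -60% or lower, but not beyond a set lower limit; inconclusive = change between -60% and -40%, or beyond the set limit; inactive = change above -40%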; also: % is scaled to controls: 0 for no effect and ±100 for the full control effect
miR-21 FLuc: miR-21 reporter, rising signal | HeLa miR-21 FLuc reporter, luciferase, 48 h | Potency, µM (top dose mostly 38.3 µM), inactives show at the top dose reporter change, positive = more light | 340,000 tested, under 10 active | AID 2288; active = well fitted rising curve with a large enough effect; inconclusive = small, poorly fitted or top-dose-only effect; inactive = no such curve, though single readings can be large or run the other way;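 further: % of control where 0% means no effect; miR-21 action dims this reporter so a rising signal means less miR-21 action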
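Luminescence from a firefly luciferase reporter carrying a miR-21 binding site downstream, stably expressed under a CMV promoter in HeLa cells that make miR-21 endogenously, reports miRNA modulation after 48 h compound exposure up to approximately 40uM final.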
IL-2 act: IL-2 activation. IL-2 activation reporter assay, cell-based qHTS; stimulated with anti-CD3/CD4/CD28 beads; in transgenic mouse T cells. activation, % (series mostly up to about 46 µM). 0.065% of 360,000 active; in the data active = activation above about 50%; inconclusive = mostly about 30% to 49%; also: 0% is about no effect
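Quantitative HTS in unstimulated transgenic mouse T cells, with memory T cells as non-tolerant control and PMA/ionomycin as tolerance-bypass control. Compound pretreatment lasted 60 minutes before 18 h bead stimulation; EGFP/DsRed fluorescence read.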
RXFP1 agonist: RXFP1 (human) receptor agonism. Q9HBX9. HEK293T-RXFP1 cAMP TR-FRET, 30 min; response scale: percent of porcine relaxin response, buffer zero. Potency, µM (top dose mostly 57.5 µM), for the others: at the highest dose activation, usual class: activators. 0.3% of 370,000 active. AID 2676; also: potency is read from the fitted curve at half-maximal effect; % is scaled to controls: 0 for no effect and ±100 for the full control effect; nearly all actives have a fitted effect of over 60% in size
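Agonist response is measured as cAMP accumulation in an RXFP1-transfected HEK293T line under PDE4 inhibition. Values are scaled between buffer-only and 29 nM porcine relaxin, and EC50s come from standard Hill equation fits.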
TCR act: T cell receptor activation | primary human leukocytes, anti-CD3, IL-2 HTRF, 48 h | Potency, µM (series often up to 9.22 µM), inactives show at the highest dose activation of IL-2 secretion, most hits filed as activators | 330,000 tested, under 10 active; also: % of control where 0% means no effect
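Primary human leukocytes receive a-CD3 beads and test compound and are incubated 48 hr. Secreted IL-2 is then assayed by HTRF, measuring 665nm acceptor emission after 320nm excitation of the europium donor.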
The depositor's hits bear a star. The list is not random: actives were taken first. Their share in the collection is about 0.78%. Unless noted, calls follow the shape of the dose curve; as a rule, active = well fitted curve in the direction sought with a large enough effect; inconclusive = small, poorly fitted or top-dose-only effect, or another doubt; inactive = no such curve, though single readings can be large; an effect the other way counts as inactive or inconclusive.

Screening CCOC(=O)c1cc(-c2ccccc2)n(CCCC(=O)Nc2ccc(CC)cc2)c1C returned PINK1 modulator -0.1%, RXFP1 antag -18.5, miR-21 FLuc 13.6% and RXFP1 agonist -0.8%.
CCOC(=O)c1cc(-c2ccccc2)n(CCC(=O)Nc2ccc(C(F)(F)F)cc2)c1C was read as PINK1 modulator 39.8µM*, RXFP1 antag -67.1*, miR-21 FLuc inconclusive and RXFP1 agonist 1.2%.
For COC(=O)c1ccc(-c2cccc3c2OC(CNC(=O)c2ccc4c(c2)OCCO4)C3)nc1 (stereo not given) the results were PINK1 modulator -0.3%.
For O=C(N/N=C/c1ccco1)c1cc(-c2cccc3ccccc23)n[nH]1 the results were PINK1 modulator -5.8%, RXFP1 antag -12.7, miR-21 FLuc -46.7%, IL-2 act -0.8, RXFP1 agonist 0.7% and TCR act 1.4%.
For O=C(N/N=C/c1ccccc1C(=O)O)c1cc(-c2ccc3c4c(cccc24)CC3)n[nH]1 the results were PINK1 modulator 3.4%, RXFP1 antag -65.2*, miR-21 FLuc -20.9%, IL-2 act 1.4, RXFP1 agonist 0.2% and TCR act -1.0%.
For COc1cc(CN2CCOc3ccc(CN4CCC(Oc5cccnc5)CC4)cc3C2)ccc1F the results were PINK1 modulator -0.5%.
Screening COc1ccc(-n2c(SCC(=O)Nc3ccc(Br)cc3)nc(O)cc2=O)cc1 returned PINK1 modulator -1.9%, RXFP1 antag -66.5*, miR-21 FLuc 9.0%, IL-2 act 1.0, RXFP1 agonist 0.3% and TCR act -1.8%.
Screening CN(C)c1nc(CN2CCCCC2c2cccnc2)nc2ccccc12 (stereo not given) returned PINK1 modulator 1.3%.
Screening CCN1CCN(Cc2c3ccccc3cc3ccccc23)CC1 returned PINK1 modulator 0.8%, RXFP1 antag -60.4*, miR-21 FLuc -13.6%, IL-2 act 0.3 and RXFP1 agonist -1.3%.
For O=C(NCC1Cc2cccc(-c3cnccn3)c2O1)C1COc2ccccc2O1 (stereo not given) the results were PINK1 modulator 1.0%.

3 compounds out of the list, arranged by SMILES length, falling:
CCOC(=O)c1cc(-c2ccccc2)n(CCC(=O)Nc2ccc(C(F)(F)F)cc2)c1C was read as PINK1 modulator 39.8µM*, RXFP1 antag -67.1*, miR-21 FLuc inconclusive and RXFP1 agonist 1.2%.
Screening COc1ccc(-n2c(SCC(=O)Nc3ccc(Br)cc3)nc(O)cc2=O)cc1 returned PINK1 modulator -1.9%, RXFP1 antag -66.5*, miR-21 FLuc 9.0%, IL-2 act 1.0, RXFP1 agonist 0.3% and TCR act -1.8%.
Screening CCN1CCN(Cc2c3ccccc3cc3ccccc23)CC1 returned PINK1 modulator 0.8%, RXFP1 antag -60.4*, miR-21 FLuc -13.6%, IL-2 act 0.3 and RXFP1 agonist -1.3%.

Other compounds
For O=C(NC1CCCCC1)c1ccc(Cn2c(SCc3ccccc3F)nc3cccnc32)cc1 the results were PINK1 modulator -0.3%, RXFP1 antag -3.3, miR-21 FLuc 14.0% and RXFP1 agonist -0.9%.
`Cc1ccc(CSc2nc3cccnc3n2Cc2ccc(C(=O)NC3CCCCC3)cc2)cc1` gave PINK1 modulator 1.6%, RXFP1 antag -4.2, miR-21 FLuc -16.6% and RXFP1 agonist 20µM*.
CCOn1c(=O)c(-c2cc3ccccc3o2)[n+]([O-])c2ccccc21 was read as PINK1 modulator 2.4%, RXFP1 antag 4.7, miR-21 FLuc -47.6%, IL-2 act 51.9*, RXFP1 agonist 0.3% and TCR act 4.1%.
For O=c1c(-c2cc3ccccc3o2)[n+]([O-])c2ccccc2n1OCc1ccccn1 the results were PINK1 modulator 0.1%, RXFP1 antag -2.5, miR-21 FLuc -39.5%, IL-2 act -3.2, RXFP1 agonist 0.0% and TCR act -6.2%.
For Cc1ccccc1NC(=O)CN1C(=O)S/C(=C\c2ccc(-c3cc(C(=O)O)ccc3C)o2)C1=O the results were PINK1 modulator 12.9%, RXFP1 antag 2.2, miR-21 FLuc 3.2%, IL-2 act 76.9*, RXFP1 agonist 0.6% and TCR act -0.4%.
CCOC(=O)/C(C#N)=C/c1cc2ccccc2nc1N1CCCCC1 was read as PINK1 modulator -4.4%, RXFP1 antag -1.5, miR-21 FLuc -10.3%, IL-2 act -5.8, RXFP1 agonist 14.1µM* and TCR act -3.8%.
For COCCN(CCOc1cc(C)cc(C)c1)Cc1ccc(Cl)cc1 the results were PINK1 modulator 17.9%, RXFP1 antag -22.2, miR-21 FLuc 0.4%, IL-2 act -1.5, RXFP1 agonist 1.8% and TCR act 0.0%.
